Results published in patent US20260382564A1, “COMPOSITIONS AND METHODS FOR TREATING A DISEASE OR DISORDER ASSOCIATED WITH SENESCENCE” (published 2026).

What was measured:
senescent cells = conditions: previously published data [4][5][6][7]; cited from earlier work
[1] = system: SASP cytokines (IL-1β, IL-6, TNF-α, TGF-β, and IL-12); experiment: SASP cytokine levels in brain and kidneys, overall; conditions: day 22
Procedure: (§1) Experimental treatments were administered intraperitoneally three times at 48 h intervals using a sterile hypodermic syringe and a stainless-steel needle (26 G). Animals were subjected to intravital blood sampling from the lateral tail vein before and on days 7, and day 21 after the first treatment. On day 22, all animals were humanely sacrificed, their blood was collected for biochemical assessment, and the brain and kidneys were harvested for measurements of SASP.
Senescence-associated secreted patterns (SASP) were measured in mice brains and kidneys at the end of Experiment 2—on day 22nd after the initial injection of treatment. SASP cytokine concentrations varied between the brain and kidneys of the same mice (FIG. 21-24). Levels of TGF-β1 were bigger in the brain, whereas the contents of IL-1β, IL-6, and TNF-α were higher in the kidneys. IL12p70 was detected only in the kidneys (FIG. 25). All treatments increased the concentration of IL-1β in the brain but only Fisetin+EXO led to significant changes (FIG. 21). […]
SASP cytokines (IL-1β, IL-6, TNF-α, TGF-β, and IL-12) were measured in brain and kidney tissue samples with commercially available ProcartaPlex™ Multiplex Immunoassay Kit (Thermo Fisher Scientific Inc., Waltham, Massachusetts, USA) using Luminex™ magnetic bead technology according to the instructions issued by the manufacturer.

[2] = system: pro-inflammatory cytokines like IL-1β, IL-6, and TNF-α; conditions: previous research [3][4][5]; cited from earlier work
[3] = Example 11: mouse blood cell counts compared with values before treatment; conditions: intraperitoneal three times at 48 h
Procedure: This experiment aimed to compare the blood parameters and levels of senescence-associated secretory phenotype (SASP) in the brains and kidneys of mice before and after various treatments.
The treatments included: i) administration of FOXO4-DRI (5 mg/kg, n=3), ii) administration of FOXO4-DRI loaded into exosomes (100 million) derived from human WJ-MSCs (FOXO-EXO, n=4), iii) administration of Fisetin (a plant flavonol with senolytic activity, n=3), iv) administration of Fisetin loaded into the same kind of exosomes (Fisetin-EXO, n=4). The schematic of the experimental plan is shown FIG. 6.
The control group consisted of intact animals (n=3), and an additional comparison was made with mice treated with exosomes derived from WJ-MSCs without any additional cargo (n=3). For this purpose, 20 male BALB/C mice aged 24 to 26 weeks were prepared from the National Science and Research Institute and Medicine Innovative Center, Vilnius, Lithuania. The animals were kept under standard vivarium conditions with a 12-h light/dark cycle, a complete diet, and free access to food and water. Animal care and handling were carried out under national and international requirements for the treatment of animals used for scientific purposes.
as §1
Blood sampling for hematology was performed from the tail vein. The following parameters were analyzed: white blood cell count (WBC), platelets (PLT), neutrophils (NEU), lymphocytes (LYM), monocytes (MONO), and eosinophils (EOS). This was done using a hematological autoanalyzer (ADVIA2120i Hematology analyzer, Bayer, USA.
Experimental data were processed using the Statistica 10.0 software package. Data are shown in graphs as mean±SEM. In experiment 2 the nonparametric Kruskal-Wallis's test was used for intergroup comparison, whereas Wilcoxon matched pair test was applied for the comparisons within the same group. The differences were considered statistically significant with a P-value equal to or less than 0.05. Senolytics are the compounds that encourage damaged senescent cells to destroy themselves thereby extending the health span of organisms. Cellular senescence is associated with age-related diseases, including cardiovascular diseases, neurodegenerative diseases, type 2 diabetes, osteoarthritis, atherosclerosis, and various types of tumors. According to previously published data, treatments with FOXO4-DRI or Fisetin selectively destroyed senescent cells and produced rejuvenation in older laboratory animals. FOXO4-DRI is a cell-penetrating peptide (CPP) designed by a group of Peter L. J. de Keizer in 2017 to perturb the FOXO4 interaction with p53 [3]. Fisetin's senolytic activity is mediated via the inhibition of pro-survival PI3K/AKT and MAPK pathways, leading to the sensitization of senescent cells to apoptosis. Both compounds' actions do result in activating p53, reducing oxidative stress and inflammation, and modulating the senescence-associated secretory patterns (SASP).

## O=c1c(O)c(-c2ccc(O)c(O)c2)oc2cc(O)ccc12
Senescent cells
  senolytic / rejuvenating effect: selectively destroyed senescent cells and produced rejuvenation in older laboratory animals
[1]; brain
  SASP levels: did not produce significant changes
[1]; kidneys
  SASP levels: did not produce significant changes
[2]
  modulation of SASP levels: reducing the release of pro-inflammatory cytokines like IL-1β, IL-6, and TNF-α
[3]; day 7, vs before treatment
  monocyte count: notable decrease
[3]; day 22, vs before treatment
  EOS count: notable decrease
  NEU count: notable decrease
  basophil count (BASO): notable decrease
  monocyte count: notable decrease
[3]; overall (no day stated)
  PLT count: not significantly affected
  RBC count: not significantly affected
